Measurements published in US20140315797A1, “Novel N-Terminally Modified Insulin Derivatives” (priority 2010, published 2014).

The chains behind the UniProt entries cited, without tags or fusion partners. Residues count along the entry.
UniProt P06213, 28-746 isoform P06213-2 limits assumed: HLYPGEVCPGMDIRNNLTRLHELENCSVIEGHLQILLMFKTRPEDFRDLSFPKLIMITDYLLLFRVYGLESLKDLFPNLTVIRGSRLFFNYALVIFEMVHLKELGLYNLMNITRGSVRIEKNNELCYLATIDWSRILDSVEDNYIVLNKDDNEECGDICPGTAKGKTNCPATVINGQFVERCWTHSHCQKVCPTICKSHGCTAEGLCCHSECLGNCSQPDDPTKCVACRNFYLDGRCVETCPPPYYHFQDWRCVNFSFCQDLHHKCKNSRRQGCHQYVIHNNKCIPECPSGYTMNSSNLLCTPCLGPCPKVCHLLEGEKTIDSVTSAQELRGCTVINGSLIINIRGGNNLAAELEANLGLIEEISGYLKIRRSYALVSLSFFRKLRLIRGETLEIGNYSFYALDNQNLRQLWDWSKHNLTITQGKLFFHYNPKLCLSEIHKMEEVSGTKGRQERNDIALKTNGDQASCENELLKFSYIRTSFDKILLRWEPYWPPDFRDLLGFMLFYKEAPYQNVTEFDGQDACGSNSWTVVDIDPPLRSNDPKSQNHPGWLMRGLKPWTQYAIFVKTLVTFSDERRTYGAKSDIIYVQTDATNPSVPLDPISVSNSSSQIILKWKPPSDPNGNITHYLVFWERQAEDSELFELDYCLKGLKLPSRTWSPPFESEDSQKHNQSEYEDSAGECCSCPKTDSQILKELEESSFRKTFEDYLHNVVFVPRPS
UniProt P06213, 763-1382 partner limits assumed: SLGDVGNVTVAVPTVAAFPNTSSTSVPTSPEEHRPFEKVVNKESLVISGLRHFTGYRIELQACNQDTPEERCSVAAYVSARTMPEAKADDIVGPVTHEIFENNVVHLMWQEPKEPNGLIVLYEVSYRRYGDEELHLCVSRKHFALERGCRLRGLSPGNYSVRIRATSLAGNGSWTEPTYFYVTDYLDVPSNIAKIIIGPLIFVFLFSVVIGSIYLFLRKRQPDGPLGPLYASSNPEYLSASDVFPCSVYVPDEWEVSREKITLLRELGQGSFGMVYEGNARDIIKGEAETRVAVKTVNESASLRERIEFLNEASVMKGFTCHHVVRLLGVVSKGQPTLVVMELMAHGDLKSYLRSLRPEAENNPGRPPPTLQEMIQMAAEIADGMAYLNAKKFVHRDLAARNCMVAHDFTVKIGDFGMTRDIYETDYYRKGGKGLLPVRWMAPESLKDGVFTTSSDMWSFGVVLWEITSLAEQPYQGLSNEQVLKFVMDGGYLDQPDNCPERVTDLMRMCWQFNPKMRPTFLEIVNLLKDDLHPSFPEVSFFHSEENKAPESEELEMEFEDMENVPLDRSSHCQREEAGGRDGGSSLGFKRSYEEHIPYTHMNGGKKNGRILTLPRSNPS

Legend:
[1] = target: T1, human insulin receptor (IR-A) (Homo sapiens, UniProt P06213); assay: Insulin receptor affinity, SPA antibody capture assay, 0% HSA; format: binding; settings: relative to affinity of human insulin
Method: (§1) The affinity of the acylated insulin analogues of this invention for the human insulin receptor is determined by a SPA assay (Scintillation Proximity Assay) microtiterplate antibody capture assay. SPA-PVT antibody-binding beads, anti-mouse reagent (Amersham Biosciences, Cat No. PRNQ0017) are mixed with 25 ml of binding buffer (100 mM HEPES pH 7.8; 100 mM sodium chloride, 10 mM MgSO4, 0.025% Tween-20). Reagent mix for a single Packard Optiplate (Packard No. 6005190) is composed of 2.4 μl of a 1:5000 diluted purified recombinant human insulin receptor (either with or without exon 11), an amount of a stock solution of A14Tyr[^125I]-human insulin corresponding to 5000 cpm per 100 μl of reagent mix, 12 μl of a 1:1000 dilution of F12 antibody, 3 ml of SPA-beads and binding buffer to a total of 12 ml. A total of 100 μl reagent mix is then added to each well in the Packard Optiplate and a dilution series of the insulin derivative is made in the Optiplate from appropriate samples. The samples are then incubated for 16 hours while gently shaken. The phases are the then separated by centrifugation for 1 min and the plates counted in a Topcounter. The binding data were fitted using the nonlinear regression algorithm in the GraphPad Prism 2.01 (GraphPad Software, San Diego, Calif.) and affinities are expressed relative (in percentage (%)) to the affinity of human insulin.

[2] = target: T1, human insulin receptor (IR-A); settings: relative to affinity of human insulin; […] HSA in binding buffer
Method: as §1, with “insulin. […]” for “insulin.”

CC[C@H](C)[C@H](NC(=O)CN(C)C)C(=O)N[C@H](C(=O)N[C@@H](CCC(=O)O)C(=O)N[C@@H](CCC(N)=O)C(=O)N[C@H]1CSSC[C@@H]2NC(=O)[C@H]([C@@H](C)CC)NC(=O)[C@H](CO)NC(=O)[C@H]([C@@H](C)O)NC(=O)[C@H](CSSC[C@H](NC(=O)[C@H](CC(C)C)NC(=O)[C@H](Cc3c[nH]cn3)NC(=O)[C@H](CCC(N)=O)NC(=O)[C@H](CC(N)=O)NC(=O)[C@@H](NC(=O)[C@H](Cc3ccccc3)N(C)C)C(C)C)C(=O)NCC(=O)N[C@@H](CO)C(=O)N[C@@H](Cc3c[nH]cn3)C(=O)N[C@@H](CC(C)C)C(=O)N[C@@H](C(C)C)C(=O)N[C@@H](CCC(=O)O)C(=O)N[C@@H](C)C(=O)N[C@@H](CC(C)C)C(=O)N[C@@H](Cc3ccc(O)cc3)C(=O)N[C@@H](CC(C)C)C(=O)N[C@@H](C(C)C)C(=O)N[C@H](C(=O)NCC(=O)N[C@@H](CCC(=O)O)C(=O)N[C@@H](CCCNC(=N)N)C(=O)NCC(=O)N[C@@H](Cc3ccccc3)C(=O)N[C@@H](Cc3c[nH]cn3)C(=O)N[C@@H](Cc3ccc(O)cc3)C(=O)N3CCC[C@H]3C(=O)N[C@@H](CCCCNC(=O)COCCOCCNC(=O)COCCOCCNC(=O)CC[C@H](NC(=O)CCCCCCCCCCCCCCCCC(=O)O)C(=O)O)C(=O)O)CSSC[C@@H](C(=O)N[C@@H](CC(N)=O)C(=O)O)NC(=O)[C@H](Cc3ccc(O)cc3)NC(=O)[C@H](CC(N)=O)NC(=O)[C@H](CCC(=O)O)NC(=O)[C@H](CC(C)C)NC(=O)[C@H](CCC(N)=O)NC(=O)[C@H](CCC(=O)O)NC(=O)[C@H](CC(C)C)NC(=O)[C@H](CO)NC2=O)NC1=O)C(C)C [Example 5, A1(N^α, N^α-Dimethyl), A14E, B1(N^α,N^α-dimethyl), B25H, desB27, B29K(N^εoctadecanedioyl-gGlu-2xOEG), desB30 human insulin]
Relative IR-A affinity (@ 0% HSA) (%) [1]: 1.7%
Relative IR-A affinity (@ […] HSA) (%)e [2]: 0.17%

CC[C@H](C)[C@H](NC(=O)CNC(N)=O)C(=O)N[C@H](C(=O)N[C@@H](CCC(=O)O)C(=O)N[C@@H](CCC(N)=O)C(=O)N[C@H]1CSSC[C@@H]2NC(=O)[C@H]([C@@H](C)CC)NC(=O)[C@H](CO)NC(=O)[C@H]([C@@H](C)O)NC(=O)[C@H](CSSC[C@H](NC(=O)[C@H](CC(C)C)NC(=O)[C@H](Cc3c[nH]cn3)NC(=O)[C@H](CCC(N)=O)NC(=O)[C@H](CC(N)=O)NC(=O)[C@@H](NC(=O)[C@H](Cc3ccccc3)NC(N)=O)C(C)C)C(=O)NCC(=O)N[C@@H](CO)C(=O)N[C@@H](Cc3c[nH]cn3)C(=O)N[C@@H](CC(C)C)C(=O)N[C@@H](C(C)C)C(=O)N[C@@H](CCC(=O)O)C(=O)N[C@@H](C)C(=O)N[C@@H](CC(C)C)C(=O)N[C@@H](Cc3ccc(O)cc3)C(=O)N[C@@H](CC(C)C)C(=O)N[C@@H](C(C)C)C(=O)N[C@H](C(=O)NCC(=O)N[C@@H](CCC(=O)O)C(=O)N[C@@H](CCCNC(=N)N)C(=O)NCC(=O)N[C@@H](Cc3ccccc3)C(=O)N[C@@H](Cc3c[nH]cn3)C(=O)N[C@@H](Cc3ccc(O)cc3)C(=O)N3CCC[C@H]3C(=O)N[C@@H](CCCCNC(=O)CC[C@H](NC(=O)CCCCCCCCCCCCCCCCC(=O)O)C(=O)O)C(=O)O)CSSC[C@@H](C(=O)N[C@@H](CC(N)=O)C(=O)O)NC(=O)[C@H](Cc3ccc(O)cc3)NC(=O)[C@H](CC(N)=O)NC(=O)[C@H](CCC(=O)O)NC(=O)[C@H](CC(C)C)NC(=O)[C@H](CCC(N)=O)NC(=O)[C@H](CCC(=O)O)NC(=O)[C@H](CC(C)C)NC(=O)[C@H](CO)NC2=O)NC1=O)C(C)C [Example 17, A1(N^αCarbamoyl), A14E, B1(N^αCarbamoyl), B25H, desB27, B29K(N^εoctadecandioyl-gGlu), desB30 human insulin]
Relative IR-A affinity (@ 0% HSA) (%) [1]: 0.2%
